AlphaSeq binding of Ab-14 light chain variants to a spike HR2 peptide

Source: Engelhart et al. 2022 (doi:10.1038/s41597-022-01779-4), MIT Lincoln Laboratory and A-Alpha Bio; data file from the FLAb repository.

Target peptide (SARS-CoV-2 spike, HR2 region): PDVDLGDISGINAS

Parent scFv Ab-14: VH joined to VL by a 15-residue (Gly4Ser)3 linker. Changes lie in the light chain CDRs alone.
VH: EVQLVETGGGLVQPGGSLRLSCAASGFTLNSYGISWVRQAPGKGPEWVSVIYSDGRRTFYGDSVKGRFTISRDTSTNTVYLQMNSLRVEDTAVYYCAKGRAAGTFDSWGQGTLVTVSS
VL: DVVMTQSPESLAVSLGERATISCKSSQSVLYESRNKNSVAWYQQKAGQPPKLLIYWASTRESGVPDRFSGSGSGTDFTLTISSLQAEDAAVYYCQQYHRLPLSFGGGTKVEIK

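The starting antibody came from a phage panning campaign against this peptide. Library AAYL50 holds single substitutions and randomly drawn double and triple substitutions in the CDRs. The assay is AlphaSeq: two haploid yeast populations carry antibody and antigen on their surface. Pairs that bind mate more often; barcode pairs of the diploids are counted by sequencing. The ratio of observed to expected reads was calibrated, replicate by replicate, on BCL2-family standards whose Kd was known from biolayer interferometry. Mating was done three times.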

Each variant is given by its three light chain CDRs, as the data file delimits them; those of the parent are KSSQSVLYESRNKNSVA, WASTRES, QQYHRLPLS.
Numbers give log10(Kd / nM), so 0 is 1 nM and 3 is 1 µM. Smaller is tighter.
Replicates are averaged; those with no signal do not enter the mean.
"no signal" marks a missing value. The strain was present, yet no cells mated with the target were sequenced in any replicate, which points to weak or no binding.

CDR-L1,CDR-L2,CDR-L3,"log10 Kd (nM), mean",replicates with signal
KSSQSVLAESKNKNSVA,WASIRES,QQYHRLPLS,0.54,3/3
KSSASVLYESRNKNSVA,WASTVLS,QQYHRLPLS,3.77,3/3
KESQSVLYESRNKNSVA,WAETREP,QQYHRLPLS,3.04,3/3
KFSQSVLYESRNKNSLA,WASTRES,VQYHRLPLS,4.07,2/3
KSSQSVLYESRNKNSVN,SASTRES,WQYHRLPLS,3.79,1/3
KSSQSVLEESRNKNSVA,WASTRES,DQYHRYPLS,5.19,1/3
KSSQSVLYESYNKNIVA,WASTRES,QFYHRLPLS,no signal,0/3
KSSQSVLYESRNKNAVA,WASTRES,QQLHRAPLS,no signal,0/3
KSSQSVLYESRRKHSVA,WASTRES,QYYHRLPLS,3.10,3/3
KSSQSVLYESPNKNSVA,WASTREY,QLYHRLPLS,2.34,3/3
KSSQKVLTESRNKNSVA,WASTRES,QQYHQLPLS,1.14,3/3
DSSQQVLYESRNKNSVA,WASTRES,QRYHRLPLS,3.19,2/3
NSSQSVLYESRNKNSVA,WASSRES,QQVHRLPLS,3.25,2/3
KSSQSVCYESRNKNSVL,WASTRPS,QQYHRLPLS,no signal,0/3
KPSQSVLYESRNKNSVA,WASTYEH,QQYHRLPLS,3.73,1/3
KSSQSVLYESRNKNSVA,RASTRES,QQYHQWPLS,1.54,3/3
KSSQHVQYESRNKNSVV,WASTRES,QQYHRLPLS,no signal,0/3
KSSQSVLYETRNKNSVA,WASTRET,QQYHRLFLS,3.61,2/3
YSSTMVLYESRNKNSVA,WASTRES,QQYHRLPLS,2.49,3/3
KSSQSVLYESRNKNEVA,WTCTRES,QQYHRLPLS,no signal,0/3
KSSQSVQYEQRNKNSVA,WASRRES,QQYHRLPLS,2.00,3/3
KKIQSVLYESRNKNSVA,WASTPES,QQYHRLPLS,3.88,1/3
KHSQSVLIESRNKNSVA,WASTRES,QQLHRLPLS,1.80,3/3
KSSQSVLYESRNKNSVR,WASTRES,QCYHRLPLH,no signal,0/3
KSSQSVLYESRNKNSVA,NATTRES,QQYHRLKLS,3.58,3/3
GSSQSVLYESRNKNSVA,WASTRES,QQYHRIPSS,4.30,1/3
KSSQSVLYESRNKNSVA,WYSTRES,SQEHRLPLS,no signal,0/3
KSSQSVLYMSRNKNSRA,WASTRES,QQYHRLPLS,no signal,0/3
KSSQSWLYESRNKNSVA,WASTRRS,QQYHRLQLS,4.48,2/3
KSLQSVLYESVNKNSVA,WASTRES,QQYHRLPTS,no signal,0/3
KSSQSVLYLIRNKNSVA,WSSTRES,QQYHRLPLS,5.00,2/3
KSSQSVLYESYNKNSVR,WASTRES,QHYHRLPLS,no signal,0/3
KSSQSCLKESRNKNSVA,WASTREE,QQYHRLPLS,no signal,0/3
KHSQSVLAESRNKNSVA,WTSTRES,QQYHRLPLS,1.04,3/3
KSSQSVVYESRNKNGVA,WASTRES,QDYHRLPLS,1.41,3/3
KKSQSVLYESRNKNSVL,WASTRES,QQYHRLWLS,no signal,0/3
KKSQSVLCESRNKNSVA,WASTRES,EQYHRLPLS,2.67,1/3

Continued, with the values leading:

"log10 Kd (nM), mean",replicates with signal,CDR-L1,CDR-L2,CDR-L3
4.03,1/3,KSSVSVLYESRNPNSVA,WASTRES,QQYHRLHLS
3.13,1/3,KASQSVLYESRNKVSVA,WASTRES,QQYHRMPLS
4.61,1/3,KSGQSVLYESRNKNSVA,WASTRES,KQYHRLPDS
5.46,1/3,DSSQSVLYESRNKNSVA,WASTPES,QVYHRLPLS
no signal,0/3,KSSQSVLYESRNEESVA,WYSTRES,QQYHRLPLS
3.24,3/3,KSSQSVLYESRNKNSVA,WLSTRES,QQYHRLCLT
0.88,3/3,KSSQSYLYESRNKNSVA,NASTRES,QQYHRLPLS
2.37,3/3,KSSQSCLYESRNVNSVA,WASTRES,QQYHLLPLS
1.50,3/3,KSSQSVLYESRNKNSVA,WASNRDS,QQYHRFPLS
2.64,3/3,KSSQSVLYESRNKNSVA,WASTREM,QQCHRLPLC
1.89,3/3,KSSQSTIYESRNKNSVA,WASTRES,QQYHRTPLS
2.25,3/3,KSSGSALYESRNKNSVA,WASTRES,QQYWRLPLS
no signal,0/3,KSSQSVLYESRNKNSVA,WVSTRES,QMYHRLHLS
1.85,3/3,KSSQSVLYESRNKNSVA,WAFTRDK,QQYHRLPLS
no signal,0/3,KSIQSVLYESRNKNSVA,WASTNES,QQMHRLPLS
1.06,3/3,KSSQSVLYESRIKNSVA,WASTRES,QQYHVLPLT
5.01,1/3,KSSQSVLYESRNKNSVA,WASVREE,QQYHRLPSS
2.09,3/3,NSSQSVLYESRYKNSVA,WASTRES,QQYHRLPLS
no signal,0/3,NSSQSVLPESRNKNSVA,WFSTRES,QQYHRLPLS
no signal,0/3,KSSQWVLHESRNKNSVA,WFSTRES,QQYHRLPLS
1.91,3/3,KSSQSVLYESRNHSSVA,WASTRES,QQYHRLPLV
3.67,1/3,KSSQSVLYESWNKNSVA,WASTRES,QQKTRLPLS
4.78,1/3,KSSQSVLYESRNKNSVV,WASPRES,QQYHRLPLM
1.44,3/3,KSSQSVLYESRNKNSVA,WASTRDS,QISHRLPLS
2.20,3/3,KKSQSVLYESRNKNDVA,WASTRES,QQYRRLPLS
3.43,1/3,KSSQSVLYESRNSNSVA,WAWTRES,QQYHRLCLS
3.80,1/3,KSSQSVLYESRNANSVA,WAHTGES,QQYHRLPLS
1.87,3/3,VSSQSVSYESRNKNSVA,WASTRES,QQYHRLPLS
2.87,3/3,QSSQSVLYESRLKNSVA,WVSTRES,QQYHRLPLS
0.63,3/3,KSSQSVLYESDNKNSVA,WASYRES,QQYHRLPLS
2.44,3/3,KSSQSVLYESRNKNSVA,WASCRVS,QQYHRLPLS
2.04,3/3,KSSQSVLYESRNKGSLA,WASTRED,QQYHRLPLS
5.53,2/3,SSSQSVLYESRYKNSVA,WASTRES,QQYHRVPLS
2.90,1/3,KISQSVLYESRNKNSVA,WWSTRES,QQYHRLALS
no signal,0/3,KSVQSVLAESRMKNSVA,WASTRES,QQYHRLPLS
no signal,0/3,KSSQSHLYESRNKNQYA,WASTRES,QQYHRLPLS
no signal,0/3,KSSQSVLYESRNKNSFA,WASTPES,FQYHRLPLS

As a blank, each scFv also met three strains without target: over library AAYL50, 18% of these pairings were detected, typically at 4.19 and seldom below 2.99.